Where “and” joins values, the source holds several entries; their conditions need not be identical. Identical values can stand only once.

Sequences of proteins named here, by UniProt entry; tags and fusion partners are left off. A change or cut given only in a name is not applied to a line headed by its entry.
UniProt Q99558: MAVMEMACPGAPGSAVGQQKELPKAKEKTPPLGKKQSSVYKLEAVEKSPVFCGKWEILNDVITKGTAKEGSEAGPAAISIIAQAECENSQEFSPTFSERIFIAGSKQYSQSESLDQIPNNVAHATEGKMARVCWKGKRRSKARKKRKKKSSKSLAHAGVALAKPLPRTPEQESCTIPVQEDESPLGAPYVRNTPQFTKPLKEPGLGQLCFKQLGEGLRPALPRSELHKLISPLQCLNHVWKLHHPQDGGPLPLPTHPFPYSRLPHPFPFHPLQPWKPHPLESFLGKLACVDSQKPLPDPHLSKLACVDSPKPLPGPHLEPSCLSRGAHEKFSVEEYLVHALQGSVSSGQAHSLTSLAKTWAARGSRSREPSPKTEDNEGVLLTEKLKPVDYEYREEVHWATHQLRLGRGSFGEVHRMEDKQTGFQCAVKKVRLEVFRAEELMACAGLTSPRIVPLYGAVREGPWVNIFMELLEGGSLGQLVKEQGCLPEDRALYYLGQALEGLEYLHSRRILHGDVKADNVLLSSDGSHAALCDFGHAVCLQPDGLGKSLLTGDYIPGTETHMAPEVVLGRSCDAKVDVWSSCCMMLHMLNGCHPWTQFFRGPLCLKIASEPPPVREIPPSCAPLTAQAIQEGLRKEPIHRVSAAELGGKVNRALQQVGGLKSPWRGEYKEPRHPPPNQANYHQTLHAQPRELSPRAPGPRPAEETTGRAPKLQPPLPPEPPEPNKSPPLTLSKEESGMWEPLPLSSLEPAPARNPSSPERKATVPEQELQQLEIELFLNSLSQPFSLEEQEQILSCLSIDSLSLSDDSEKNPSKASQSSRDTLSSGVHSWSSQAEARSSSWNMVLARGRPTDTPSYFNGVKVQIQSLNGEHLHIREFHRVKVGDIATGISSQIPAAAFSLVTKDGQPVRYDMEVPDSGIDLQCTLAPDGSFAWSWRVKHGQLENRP

The first experiment concerns the target nuclear factor-kappa B (NF-kB)-inducing kinase (NIK) (Homo sapiens (Human), UniProt Q99558). As to the kind of experiment: NIK Enzyme Inhibition Assay (Transcreener ADP fluorescence polarization). The experiment is classed as biochemical. The conditions noted are these: purified NIK 0.2-1 nM, 10 uM ATP, Morrison's quadratic equation; read-out: NIK ADP-FP (Ki uM). The procedure: NIK Enzyme Inhibition Assay: The ability of the nuclear factor-kappa B (NF-kB)-inducing kinase (NIK) to catalyze the hydrolysis of adenosine-5′-triphosphate (ATP) was monitored using the Transcreener ADP (adenosine-5′-diphosphate) assay (BellBrook Labs). Purified NIK (0.2-1 nM) derived from a baculovirus-infected insect cell expression system was incubated with test compounds for 1-3.5 hours in 50 mM 2-[4-(2-hydroxyethyl)piperazin-1-yl]ethanesulfonic acid buffer (pH 7.2) containing 10 mM MgCl2, 2 mM dithiothreitol, 10 uM ATP, 0.01% Triton X-100, 0.1% gamma-globulins from bovine blood, 1% dimethylsulfoxide (DMSO), 12 ug/mL ADP antibody and 4 nM ADP-AlexaFluor® 633 tracer. Reactions were quenched by the addition of 20 mM 2,2′,2″,2′″-(ethane-1,2-diyldinitrilo)tetraacetic acid and 0.01% Brij 35. The tracer bound to the antibody was displaced by the ADP generated during the NIK reaction, which causes a decrease in fluorescence polarization that was measured by laser excitation at 633 nm with a Fluorescence Correlation Spectroscopy Plus reader (Evotec AG).
With `C[C@H]1COc2ccc(C#C[C@]3(O)CCN(C)C3=O)cc2-n2nc(C(N)=O)c(C(F)(F)F)c21` (racemic) [Example 564, (±)-10-bromo-9-fluoro-3-(hydroxy(1-methyl-1H-imidazol-2-yl)methyl)-6,7-dihydro-5H-5,7-methanobenzo[c]imidazo azepine-2-carboxamide], the Ki is 0.00039 µM and 0.0016 µM.

Turning to `CC(C)(O)C#Cc1cc2c(cc1F)C1CC(C1)n1c-2nc(C(N)=O)c1CNC(=O)C1CC1` (racemic), the Ki is 0.0021 µM.

Regarding `Cc1nc([C@](C)(O)C#Cc2ccc3c(c2)-n2nc(C(N)=O)cc2[C@H](C)CO3)no1` (racemic) [Example 504, (±)-Methyl 10-bromo-3-((3,5-difluorophenyl)(hydroxy)methyl)-9-fluoro-5,6-dihydrobenzo[f]imidazo[1,2-d][1,4]oxazepine-2-carboxylate], the Ki is 0.056 µM and 0.014 µM. In the case of `CC(O)(C#Cc1ccc2c(c1)-c1nc(C(N)=O)cn1C1CC2C1)c1ncccn1` (racemic) [Example 202, (±)-9-fluoro-10-(3-hydroxy-3-(1H-1,2,4-triazol-3-yl)but-1-yn-1-yl)-5,6-dihydrobenzo[f]imidazo[1,2-d][1,4]oxazepine-2-carboxamide], the Ki came to 0.0083 µM.

With `CN1CCC[C@@](O)(C#Cc2ccc3c(c2)-c2nc(C(N)=O)sc2C(F)(F)CO3)C1=O` (racemic), the Ki was found to be 0.0017 µM. Regarding `CNC(=O)c1c(C(N)=O)nc2n1C1CC(C1)c1ccc(C#CC(C)(C)O)cc1-2` (racemic), the Ki came out at 0.00012 µM.

With `CN1CC[C@@](O)(C#Cc2ccc3c(c2)-n2nc(C(N)=O)c(C(F)(F)F)c2[C@H](F)CO3)C1=O` (racemic) [Example 539, (±)-10-bromo-2,3-diiodo-6-methyl-5,6-dihydrobenzo[f]imidazo[1,2-d][1,4]oxazepine], the Ki was 0.0031 µM and 0.0023 µM. Still for that read-out and setting: the figure for `CNC(=O)c1c(C(N)=O)nc2n1C1CC(C1)c1ccc(C#CC3(O)CCCC3)cc1-2` (racemic) is 0.00107 µM; for `CC(O)(C#Cc1cc2c(cc1F)OCCn1c-2nc(C(N)=O)c1-c1nc(C2CC2)n[nH]1)CO` (racemic) [Example 208, (±)-10-(3,4-dihydroxy-3-methylbut-1-yn-1-yl)-9-fluoro-5,6-dihydrobenzo[f]imidazo[1,2-d][1,4]oxazepine-2-carboxamide] it is 0.0026 µM; for `CC(O)(C#Cc1cc2c(cc1F)OCCn1cc(C(N)=O)nc1-2)CO` (racemic) [Example 57, (±)-9-[4-(3-Cyano-azetidin-1-yl)-3-hydroxy-3-methyl-4-oxo-but-1-ynyl]-8-fluoro-4,5-dihydro-6-oxa-1,3a-diaza-benzo[e]azulene-2-carboxylic acid amide] it is 0.049 µM. Consider `CC(O)(C#Cc1cc2c(cc1F)C1CC(C1)n1cc(C(N)=O)nc1-2)c1ncccn1` (racemic) [Example 203, (±)-9-fluoro-10-(3-hydroxy-3-(1-methyl-1H-imidazol-2-yl)but-1-yn-1-yl)-5,6-dihydrobenzo[f]imidazo[1,2-d][1,4]oxazepine-2-carboxamide], for which the Ki turned out to be 0.0069 µM. On the same count and under the same terms, the value for `Cc1nc([C@](C)(O)C#Cc2ccc3c(c2)-n2nc(C(N)=O)cc2[C@@H](C)CO3)no1` (racemic) [Example 499, (±)-methyl 10-bromo-9-fluoro-3-(hydroxy(1-methyl-1H-pyrazol-5-yl)methyl)-5,6-dihydrobenzo[f]imidazo[1,2-d][1,4]oxazepine-2-carboxylate] was 0.056 µM and 0.014 µM.

Still in this experiment, the particulars now being: read-out: NIK ADP-FP (Ki uM).
Turning to `CC(C)NC(=O)[C@H]1Cn2cc(C(N)=O)nc2-c2cc(C#CC3(O)CCCC3)ccc2O1` [Example 595, (R)-10-((1-hydroxycyclopentyl)ethynyl)-N6-isopropyl-5,6-dihydrobenzo[f]imi-dazo[1,2-d][1,4]oxazepine-2,6-dicarboxamide], the Ki was > 1.2 µM and 1.3 µM.

The values are drawn from patent publication US9034866B2 (Genentech, Inc., priority 2012, dated 2015).
